Patent publication US20110003847A1, “Prasugrel Salts with Improved Properties” (HELM AG, priority 2008, published 2011)

Columns and labels:
[1] = Storage of prasugrel-coated lactose in an open container (colour); format: physicochemical; settings: after 14 days of storage in an open container
[2] = Corrosiveness of the salts; format: physicochemical

Prasugrel-Besylate [prasugrel besylate]
colour of salt-coated lactose on storage [1]: remained white
corrosiveness [2]: not corrosive
